Patent publication US10328055B2, “Pharmaceutical composition comprising (1r,4r)-6′-fluoro-N,N-dimethyl-4-phenyl-4′,9′-dihydro-3′H-spiro[cyclohexane-1,1′-pyrano[3,4,b]indo]-4-amine and antidepressants” (dated 2019)
Several values for one entry are separate records, joined by “and”; a condition that tells them apart may be missing. Equal values may be shown once. Read-outs that look alike come from different tables or passages of the source.

System: male Sprague-Dawley rats

CN(C)[C@]1(c2ccccc2)CC[C@]2(CC1)OCCc1c3cc(F)ccc3[nH]c12
% MPE (Maximum possible effect), withdrawal threshold of the ipsi-lateral hind paw, Mean SEM (30 min after i.v. administration; n = 10; part a): second ingredient = (S)-duloxetine hydrochloride, doses: first (hemicitrate) 0.0316 μg/kg, second 0.100 mg/kg, combination 0.0316 μg/kg + 0.100 mg/kg (ratio 1:3,164)): 21.0 % MPE and 21.0 ± 12.5 % MPE
% MPE (Maximum possible effect), withdrawal threshold of the ipsi-lateral hind paw, Mean SEM (30 min after i.v. administration; n = 10; part b): second ingredient = reboxetine mesylate, doses: first (hemicitrate) 0.0316 μg/kg, second 0.316 mg/kg, combination 0.0316 μg/kg + 0.316 mg/kg (ratio 1:10,000)): 20.9 % MPE and 20.9 ± 12.5 % MPE
% MPE (Maximum possible effect), withdrawal threshold of the ipsi-lateral hind paw, Mean SEM (60 min after i.v. administration; n = 10; part a): second ingredient = (S)-duloxetine hydrochloride, doses: first 0.0316 μg/kg, second 0.100 mg/kg, combination 0.0316 μg/kg + 0.100 mg/kg): 8.4 ± 10.9 % MPE
% MPE (Maximum possible effect), withdrawal threshold of the ipsi-lateral hind paw, Mean SEM (60 min after i.v. administration; n = 10; part b): second ingredient = reboxetine mesylate, doses: first 0.0316 μg/kg, second 0.316 mg/kg, combination 0.0316 μg/kg + 0.316 mg/kg): 8.4 ± 10.8 % MPE
% MPE (Maximum possible effect), withdrawal threshold of the ipsi-lateral hind paw, Mean SEM (180 min after i.v. administration; n = 10; part a): second ingredient = (S)-duloxetine hydrochloride, doses: first 0.0316 μg/kg, second 0.100 mg/kg, combination 0.0316 μg/kg + 0.100 mg/kg): −1.4 ± 6.1 % MPE
% MPE (Maximum possible effect), withdrawal threshold of the ipsi-lateral hind paw, Mean SEM (180 min after i.v. administration; n = 10; part b): second ingredient = reboxetine mesylate, doses: first 0.0316 μg/kg, second 0.316 mg/kg, combination 0.0316 μg/kg + 0.316 mg/kg): −1.4 ± 6.1 % MPE
